Permeability data for macrocyclic peptides

Source: CycPeptMPDB (Li et al. 2023), which took these values from Townsend et al. 2020, doi:10.26434/chemrxiv.13335941.v1.

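Conditions beyond the assay type are not listed; see the original paper. Other peptides of the study may be missing here. Entries at the database's floor value (log10 P of -10) are not listed.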

PAMPA is the parallel artificial membrane permeability assay, which has no cells and reads passive diffusion. Permeability is given as log10 of P in cm/s; higher (less negative) is more permeable.

CC(C)C[C@@H]1C(=O)N(C)[C@@H](CC(C)C)C(=O)N2CCC[C@@H]2C(=O)N(C)[C@@H](CC(C)C)C(=O)N[C@@H](Cc2ccccc2)C(=O)N2CCC[C@H]2C(=O)N[C@@H](C)C(=O)N1C has PAMPA -5.11 (log10 cm/s).
CC(C)C[C@@H]1NC(=O)[C@@H](C)NC(=O)[C@@H]2CCCN2C(=O)[C@H](Cc2ccccc2)NC(=O)[C@H](CC(C)C)N(C)C(=O)[C@@H]2CCCN2C(=O)[C@@H](CC(C)C)N(C)C1=O has PAMPA -5.99 (log10 cm/s).
CC(C)C[C@@H]1NC(=O)CN(Cc2ccccc2)C(=O)[C@H](C)N(C)C(=O)[C@H]2CCCN2C(=O)[C@H](Cc2ccccc2)NC(=O)[C@H](CC(C)C)N(C)C(=O)[C@@H]2CCCN2C1=O has PAMPA -5.58 (log10 cm/s).
CC(C)C[C@@H]1C(=O)N[C@@H](Cc2ccccc2)C(=O)N2CCC[C@@H]2C(=O)N(C)[C@H](C)C(=O)N(C)[C@@H](CC(C)C)C(=O)N(C)[C@@H](CC(C)C)C(=O)N2CCC[C@H]2C(=O)N1C has PAMPA -5.17 (log10 cm/s).
CC(C)C[C@@H]1NC(=O)[C@@H](C)NC(=O)[C@H](Cc2ccccc2)NC(=O)[C@H](CC(C)C)N(C)C(=O)[C@@H]2CCCN2C(=O)[C@@H](CC(C)C)NC1=O has PAMPA -5.87 (log10 cm/s).
CC(C)C[C@@H]1C(=O)N(C)[C@@H](CC(C)C)C(=O)N2CCC[C@H]2C(=O)N[C@H](CC(C)C)C(=O)N[C@@H](Cc2ccccc2)C(=O)N2CCC[C@@H]2C(=O)N(C)[C@H](C)C(=O)N1C has PAMPA -6.49 (log10 cm/s).
CC(C)C[C@@H]1NC(=O)[C@@H](C)N(C)C(=O)[C@@H]2CCCN2C(=O)[C@H](Cc2ccccc2)NC(=O)[C@@H](CC(C)C)N(C)C(=O)[C@H]2CCCN2C(=O)[C@@H](CC(C)C)N(C)C1=O has PAMPA -5.98 (log10 cm/s).
CC(C)C[C@@H]1C(=O)N[C@@H](Cc2ccccc2)C(=O)N(C)[C@@H](C)C(=O)N[C@H](CC(C)C)C(=O)N(Cc2ccccc2)CC(=O)N2CCC[C@H]2C(=O)N1C has PAMPA -5.17 (log10 cm/s).